In article PMC11098114 (Proceedings of the National Academy of Sciences of the …, 2024):

Target: the molecule itself
Experiment: SEC

B1: 3×Lys-MxEnc (natural protein, Myxococcus xanthus)
chain: MPDFLGHAENPLREEEWARLNETVIQVARRSLVGRRILDIYGPLGAGVQTVPYDEFQGVSPGAVDIVGEQETAMVFTDARKFKTIPIIYKDFLLHWRDIEAARTHNMPLDVSAAAGAAALCAQQEDELIFYGDARLGYEGLMTANGRLTVPLGDWTSPGGGFQAIVEATRKLNEQGHFGPYAVVLSPRLYSQLHRIYEKKKVLEIETIRQLASDGVYQSNRLRGESGVVVSTGRENMDLAVSMDMVAAYLGASRMNHPFRVLEALLLRIKHPDAICTLEGAGATERR
**Q.** Does B1 bind?
**A.** binds
